Test results published in paper PMC4926252 (Scientific Reports, 2016).

Target: T1, PstS (PA5369), periplasmic phosphate-binding protein, recombinant (P. aeruginosa, UniProt G3XDA8 25-323)
T1 construct: also called Pi-loaded PstS; source: E. coli BL21 (DE3), overexpressed, purified (HisTrap)
T1 sequence: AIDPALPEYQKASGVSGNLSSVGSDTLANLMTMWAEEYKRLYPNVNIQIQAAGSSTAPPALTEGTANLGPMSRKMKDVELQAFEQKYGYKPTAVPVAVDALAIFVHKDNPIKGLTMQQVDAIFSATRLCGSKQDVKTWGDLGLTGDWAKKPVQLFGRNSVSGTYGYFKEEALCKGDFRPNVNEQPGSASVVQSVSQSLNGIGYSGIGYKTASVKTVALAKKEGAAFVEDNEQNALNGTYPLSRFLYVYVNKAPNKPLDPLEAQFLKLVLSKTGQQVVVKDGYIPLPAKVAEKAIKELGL
Assay: ITC; 5 uM Pi-loaded PstS in the cell titrated with 80 uM CtpL-LBD; 25 °C; one binding site model; means of three experiments
Details: both partners purified

B1: ligand binding domain of the chemoreceptor CtpL (CtpL-LBD) (domain or fragment, P. aeruginosa, UniProt Q9HUW6 27-324, looked up)
chain: WSQRAMERPFQLLDQYLELSQRFDEQVARNIRQYLGSGDAVRQQAALQALESLAEALPELPPDLARTLAPSLAELREFSAGDLLAAGKLAGDPQGLLLQAERDLTGNLEQWSAYLDAAAGQPQAGAYRTPLLLASLHLTRLSLARAKLVESANPALAGDVERELANLREQAGRIEALPLLGVLDEQRSASDDFAAMMGLAGDAEAGAGNAEDRGVALRRELASLLQRYPDELRRTRDLIERRQQLSADTGARLDAVRQALATLEPQVRGERQRLQGQVRLIQGGMIALILLIALAIDS
notes: Cloned into pET28b(+); Held on a HisTrap column as bait in the pull-down; The discussion gives 286 amino acids for CtpL-LBD, whereas 27-324 is 298 residues; also called PA4844; source: E. coli BL21 (DE3), purified (HisTrap) from the soluble fraction
  Kd: 3.7 µM
